For this data set the following is noted: for CL/F: 200 mg once daily, geometric least-squares mean (90% CI).
The mark [1] stands for this setting: third-trimester:postpartum ratio.

Each structure is given as a SMILES string. Values joined by “and” are separate entries in the source; they are usually repeats but may differ in a detail not shown here. Equal entries are not always repeated. Where two headings read alike, the source gives them in different places.

Consider `Nc1nc(=O)n([C@@H]2CS[C@H](CO)O2)cc1F` [emtricitabine], for which the CL/F (postpartum (n = 22)) was 20.6 (18.4–23.2) L/hr and 20.6 L/hr. Moreover, for the setting “postpartum (n = 22), listed as Emtricitabine”, the CL/F was 20.6 (18.4–23.2) L/hr. Further, where the note is “third trimester (n = 26)”, the CL/F is recorded as 25.0 (22.6–28.3) L/hr. In addition, under setting [1], the “AUC, geometric mean of within-subject third-trimester:postpartum ratio (90% CI)” value is on record as 0.82 (0.71–0.96); the “C24, geometric mean of within-subject third-trimester:postpartum ratio (90% CI)” value is given as 0.68 (0.54–0.85); the “CL/F, geometric mean of within-subject third-trimester:postpartum ratio (90% CI)” value is recorded as 1.2 (1.04–1.41); the “Cmax, geometric mean of within-subject third-trimester:postpartum ratio (90% CI)” value was 0.97 (0.79–1.20). In addition, under setting [1], the “Vd/F, geometric mean of within-subject third-trimester:postpartum ratio (90% CI)” value was 1.1 (0.88–1.41) and the “t1/2, geometric mean of within-subject third-trimester:postpartum ratio (90% CI)” value was 0.92 (0.77–1.09).
